Assay results published in paper PMC8699473, “An Easily Expandable Multi-Drug LC-MS Assay for the Simultaneous Quantification of 57 Oral Antitumor Drugs in Human Plasma” (Cancers, 2021).

Assay: Short-term stability in spiked pooled human plasma (bench-top, 4 °C, 56 °C)
Settings: validation standard 2xLLOV

COc1cc2nccc(Oc3ccc(NC(=O)C4(C(=O)Nc5ccc(F)cc5)CC4)cc3)c2cc1OC [Cabozantinib]
Short-time stability (24h, RT, without daylight) Accuracy [%]: 101.0%
